Literature values in US5972963A, “3-aryl-2-(1-substituted 4-piperidinyl)-1,1-dioxo-3H-benzo[D]isothiazoles and related compounds” (Hoechst Marion Roussel, Inc., priority 1997, dated 1999).

Test system: serotonin (5 HT) uptake
Conditions: literature; cited from earlier work

Row | SMILES | 5 HT uptake inhibition
1 | O=c1n(CCCN2CCN(c3cccc(Cl)c3)CC2)nc2ccccn12 [Trazodone] | fairly selective effects on 5 HT uptakes
2 | CNCCC(Oc1ccc(C(F)(F)F)cc1)c1ccccc1 (stereo not drawn) [fluoxetine] | both a selective and potent 5 HT uptake inhibitor
3 | C[C@@H]1O[C@@H](O[C@H]2C[C@@H](O)[C@]3(CO)[C@H]4[C@H](O)C[C@]5(C)[C@@H](C6=CC(=O)OC6)CC[C@]5(O)[C@@H]4CC[C@]3(O)C2)[C@H](O)[C@H](O)[C@H]1O [ouabain] | inhibited
